The record followed here is US9023789B2, “Amylin analogs and pharmaceutical compositions thereof” (Novo Nordisk A/S, priority 2012, dated 2015).

For assay [1], the target named is T1, human calcitonin (a) receptor in BHK570 cells (Homo sapiens, UniProt P30988).
T1 construct: expressed in transfected cells
T1 sequence (P30988 25-474): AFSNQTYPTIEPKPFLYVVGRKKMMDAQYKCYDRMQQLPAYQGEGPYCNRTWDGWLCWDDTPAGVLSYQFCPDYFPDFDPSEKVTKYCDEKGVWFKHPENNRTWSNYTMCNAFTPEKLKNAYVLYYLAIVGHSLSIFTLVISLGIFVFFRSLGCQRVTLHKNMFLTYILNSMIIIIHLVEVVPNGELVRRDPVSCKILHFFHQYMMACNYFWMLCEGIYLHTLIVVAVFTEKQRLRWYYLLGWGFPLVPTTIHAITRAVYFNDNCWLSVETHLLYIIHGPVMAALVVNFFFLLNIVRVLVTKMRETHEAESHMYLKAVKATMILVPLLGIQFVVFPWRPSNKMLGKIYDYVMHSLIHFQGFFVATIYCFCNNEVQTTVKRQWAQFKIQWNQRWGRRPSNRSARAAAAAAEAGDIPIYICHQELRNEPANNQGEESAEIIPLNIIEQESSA
Put plainly: ASSAY (II)a functional assay, human calcitonin receptor (CRE luciferase). The class given is cell-based. As to conditions: read-out: hCTR funct. EC50. The text has this:
(§1) 1. Luciferase Assay Outline
(§2) Activation of calcitonin and amylin (coexpression of calcitonin receptor and receptor activity modifying proteins (RAMP)) receptors lead to increased intracellular concentrations of cAMP. Consequently, transcription is activated by promoters containing multiple copies of the cAMP response element (CRE). It is thus possible to measure amylin activity by the use of a CRE luciferase reporter gene introduced into BHK cells also expressing calcitonin or amylin receptors.
(§3) 2. Construction of Calcitonin (a)- and Amylin 3(a)-Receptor/CRE-Luc Cell Line.
(§4) The cell line was further transfected with RAMP-3, using standard methods. This turns the calcitonin receptor into an amylin 3(a) receptor. Methotrexate, Neomycin, and Hygromycin are selection markers for luciferase, the calcitonin receptor, and RAMP-3, respectively.
To perform activity assays, BHK calcitonin (a) receptor- or amylin 3(a)-receptor/CRE-luc cells were seeded in white 96 well culture plates at a density of about 20.000 cells/well. […] After incubation overnight at 37° C. and 5% CO2, the growth medium was replaced by 50 μl/well assay medium (DMEM (without phenol red), Glutamax™, 10% FBS, and 10 mM Hepes, pH 7.4). Further, 50 μl/well of standard or sample in assay buffer were added. […] Finally, luminescence was measured on a TopCounter (Packard) in SPC (single photon counting) mode.

Assay [2] deals with T2, human calcitonin receptor (Homo sapiens, UniProt P30988).
T2 construct: expressed in transfected cells
T2 sequence (P30988 25-474): T1 sequence (P30988 25-474)
The experiment in a line: ASSAY (VII) binding to the human calcitonin receptor (SPA, 125I-Calcitonin).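 Also: cell membranes (35 ng/µL) combined with SPA beads in 40 µL of pH 7.4 Hepes buffer, 384-well format, signal counted on a TopCounter instrument.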 As to conditions: read-out: hCTR bind IC50.

Assay [3] has as its target T3, human amylin receptor (membranes from Amylin 3(a)/CRE-luc cells) (Homo sapiens, UniProt O60896+P30988).
T3 construct: expressed in transfected cells
T3 sequence (P30988 25-474): T1 sequence (P30988 25-474)
T3 sequence (O60896 24-148 partner): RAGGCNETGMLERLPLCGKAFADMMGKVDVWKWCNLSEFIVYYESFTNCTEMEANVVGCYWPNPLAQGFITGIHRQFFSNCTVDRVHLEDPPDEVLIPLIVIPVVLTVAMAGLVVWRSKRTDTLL
Put plainly: ASSAY (V) binding to the human amylin receptor (SPA, 125I-rat amylin).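 As to all read-outs here: competition binding of cell membranes (35 ng/µL) mixed with SPA beads in 384-well plates at 40 µL total volume, read by scintillation counting.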 To be noted: for IC50: Table 4, read-out: hAmylin-R bind IC50.

Assay [4] deals with T4, rat amylin receptor (rat calcitonin receptor + rat RAMP 3) (Rattus norvegicus, UniProt P32214+Q9JJ73).
T4 construct: expressed in transfected cells; host or cells: BHK tk'ts 13 (transient, FuGENE 6), membranes
T4 sequence (P32214 25-479 isoform P32214-2 limits assumed): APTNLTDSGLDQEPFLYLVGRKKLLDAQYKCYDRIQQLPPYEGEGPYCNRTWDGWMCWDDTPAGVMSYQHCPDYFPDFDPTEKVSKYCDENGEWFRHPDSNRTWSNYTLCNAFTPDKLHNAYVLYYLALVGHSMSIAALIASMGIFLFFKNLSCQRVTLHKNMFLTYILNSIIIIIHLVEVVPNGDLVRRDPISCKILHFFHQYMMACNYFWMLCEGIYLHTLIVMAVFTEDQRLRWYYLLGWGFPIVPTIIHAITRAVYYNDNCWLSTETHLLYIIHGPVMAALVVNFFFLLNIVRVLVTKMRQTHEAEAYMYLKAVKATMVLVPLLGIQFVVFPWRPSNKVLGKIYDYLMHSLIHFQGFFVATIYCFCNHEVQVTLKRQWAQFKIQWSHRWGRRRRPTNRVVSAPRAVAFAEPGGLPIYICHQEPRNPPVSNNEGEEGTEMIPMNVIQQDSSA
T4 sequence (Q9JJ73 23-147 partner): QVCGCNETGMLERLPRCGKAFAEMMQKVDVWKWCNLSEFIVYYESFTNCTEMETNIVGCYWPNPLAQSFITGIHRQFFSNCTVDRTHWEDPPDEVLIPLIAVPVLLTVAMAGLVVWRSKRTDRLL
The experiment in a line: ASSAY (VI) binding to the rat amylin receptor. To be noted: for IC50: binding to rat amylin receptor, read-out: rAmylin-R bind IC50. The procedure:
Assay (VI)—Determination of the Binding to the Rat Amylin Receptor […] The BHK tk′ts 13 cells were transiently transfected with rat calcitonin receptor using FuGENE® 6 (Roche), according to the manufacturer's recommendations. […] Approximately 48 hours after transfection, the cells were harvested and membranes were prepared.

Assay [5] has as its target T5, human amylin 3(a) receptor (human calcitonin receptor + RAMP-3) in BHK570 cells (Homo sapiens, UniProt O60896+P30988).
T5 construct: expressed in transfected cells
Put plainly: ASSAY (II)a functional assay, human amylin receptor (CRE luciferase). The class given is cell-based. To be noted: for EC50: human amylin receptor functional potency, assay (II), read-out: hAmylin-R funct. EC50.
Source text: as §1, §2, §3, §4
To perform activity assays, BHK calcitonin (a) receptor- or amylin 3(a)-receptor/CRE-luc cells were seeded in white 96 well culture plates at a density of about 20.000 cells/well. […] After incubation overnight at 37° C. and 5% CO2, the growth medium was replaced by 50 μl/well assay medium (DMEM (without phenol red), Glutamax™, 10% FBS, and 10 mM Hepes, pH 7.4). Further, 50 μl/well of standard or sample in assay buffer were added. After 3 hours incubation at 37° C. and 5% CO2, the assay medium with standard or sample were removed and replaced by 100 μl/well PBS. Further, 100 μl/well LucLite™ was added. The plates were sealed and incubated at room temperature for 30 minutes. Finally, luminescence was measured on a TopCounter (Packard) in SPC (single photon counting) mode.

[6] abbreviates: Table 5, selectivity, hCTR bind IC50 / hAmylin-R bind IC50.
Where [7] appears, read: Table 5a, selectivity, hCTR bind IC50 / hAmylin-R bind IC50.
The mark [8] stands for this setting: Table 5b, selectivity, hCTR bind IC50 / hAmylin-R bind IC50.
Setting [9] is: Table 5c, selectivity, hCTR bind IC50 / hAmylin-R bind IC50.
Setting [10] is: Table 7, human binding selectivity, included for comparison.
Where [11] appears, read: Table 7a (preferred compounds), human binding selectivity, included for comparison.
[12] abbreviates: ratio of human calcitonin receptor binding IC50 to human amylin receptor binding IC50.
[13] abbreviates: Table 7, rat binding selectivity, rCTR IC50 / rAmylin-R IC50.
The mark [14] stands for this setting: Table 7a (preferred compounds), rat binding selectivity, rCTR IC50 / rAmylin-R IC50.
Setting [15] is: ratio of rCTR bind IC50 to rAmylin-R bind IC50.
Where [16] appears, read: hCTR funct. EC50 divided by hAmylin-R funct. EC50.
Where [17] appears, read: human functional selectivity: hCTR funct. EC50 / hAmylin-R funct. EC50.

With `CC[C@H](C)[C@H](NC(=O)[C@H](C)NC(=O)CNC(=O)[C@H](Cc1ccccc1)NC(=O)[C@H](CC(N)=O)NC(=O)[C@@H]1CCCN1C(=O)[C@H](CO)NC(=O)[C@H](CO)NC(=O)[C@H](Cc1c[nH]cn1)NC(=O)[C@H](CCCNC(=N)N)NC(=O)[C@H](CC(C)C)NC(=O)[C@H](Cc1ccccc1)NC(=O)[C@H](CC(N)=O)NC(=O)[C@H](C)NC(=O)[C@H](CC(C)C)NC(=O)[C@H](CCCNC(=N)N)NC(=O)[C@H](CCC(N)=O)NC(=O)[C@@H](NC(=O)[C@H](C)NC(=O)[C@@H]1CSSC[C@H](NC(=O)[C@@H](N)CCCCNC(=O)CCCCCCCCCCCCCCCCCCC(=O)O)C(=O)N[C@@H](CC(N)=O)C(=O)N[C@@H]([C@@H](C)O)C(=O)N[C@@H](C)C(=O)N[C@@H]([C@@H](C)O)C(=O)N1)[C@@H](C)O)C(=O)N1CCC[C@H]1C(=O)N[C@@H](CO)C(=O)N[C@@H](CO)C(=O)N[C@H](C(=O)N[C@@H](CC(N)=O)C(=O)N[C@H](C(=O)NCC(=O)N[C@@H](CO)C(=O)N[C@@H](CC(N)=O)C(=O)N[C@H](C(=O)N[C@@H](Cc1ccc(O)cc1)C(N)=O)[C@@H](C)O)C(C)C)[C@@H](C)O` [Example 42], the EC50 (commonly the concentration needed to bring the measured effect to its halfway point) in assay [1] was 1.98 nM; in assay [5] it was 0.146 nM. Also, the IC50 – broadly, the midpoint of a concentration-inhibition curve – is 8.11 nM in assay [2], 0.264 nM in assay [3] and 0.603 nM in assay [4] (Table 7). Moreover, the “Ratio hCT/hAmylin binding” value in assay [3] (setting [6]), in assay [3] (setting [7]), in assay [3] (setting [8]), in assay [3] (setting [9]), in assay [3] (setting [10]) and in assay [3] (setting [11]) was 30.7 throughout. For the same compound, the “Ratio hCT/hAmylin binding” value in assay [3] (setting [12]) came to 30.7. Further, the “Ratio rCT/rAmylin binding” value in assay [4] (setting [13]), in assay [4] (setting [14]) and in assay [4] (setting [15]) was 25.4 throughout. Further, the “Ratio hCT/hAmylin funct.” value in assay [5] (setting [16]), in assay [5] (hCTR funct. EC50 over hAmylin-R funct. EC50) and in assay [5] (setting [17]) was 13.5 each time.

In the case of `CC[C@H](C)[C@H](NC(=O)[C@H](C)NC(=O)CNC(=O)[C@H](Cc1ccccc1)NC(=O)[C@H](CC(N)=O)NC(=O)[C@@H]1CCCN1C(=O)[C@H](CO)NC(=O)[C@H](CO)NC(=O)[C@H](Cc1c[nH]cn1)NC(=O)[C@H](CCCNC(=N)N)NC(=O)[C@H](CC(C)C)NC(=O)[C@H](Cc1ccccc1)NC(=O)[C@H](CC(N)=O)NC(=O)[C@H](C)NC(=O)[C@H](CC(C)C)NC(=O)[C@H](CCCNC(=N)N)NC(=O)[C@H](CCC(N)=O)NC(=O)[C@@H](NC(=O)[C@H](C)NC(=O)[C@@H]1CSSC[C@H](NC(=O)[C@H](CCCCN)NC(=O)CC[C@H](NC(=O)CCCCCCCCCCCCCCCCCCC(=O)O)C(=O)O)C(=O)N[C@@H](CC(N)=O)C(=O)N[C@@H]([C@@H](C)O)C(=O)N[C@@H](C)C(=O)N[C@@H]([C@@H](C)O)C(=O)N1)[C@@H](C)O)C(=O)N1CCC[C@H]1C(=O)N[C@@H](CO)C(=O)N[C@@H](CO)C(=O)N[C@H](C(=O)N[C@@H](CC(N)=O)C(=O)N[C@H](C(=O)NCC(=O)N[C@@H](CO)C(=O)N[C@@H](CC(N)=O)C(=O)N[C@H](C(=O)N[C@@H](Cc1ccc(O)cc1)C(N)=O)[C@@H](C)O)C(C)C)[C@@H](C)O` [Example 21], the EC50 was found to be 0.611 nM in assay [1] and 0.148 nM in assay [5]. In addition, the IC50 came to 14.2 nM in assay [2], 0.585 nM in assay [3] and 1.48 nM in assay [4] (Table 7). For the same compound, the “Ratio hCT/hAmylin binding” value in assay [3] (setting [6]), in assay [3] (setting [7]), in assay [3] (setting [8]), in assay [3] (setting [9]), in assay [3] (setting [10]) and in assay [3] (setting [11]) was 24.4 in each case. The “Ratio hCT/hAmylin binding” value in assay [3] (setting [12]) was 24.4. For the same compound, the “Ratio rCT/rAmylin binding” value in assay [4] (setting [13]), in assay [4] (setting [14]) and in assay [4] (setting [15]) was 18.8 throughout. Moreover, the “Ratio hCT/hAmylin funct.” value in assay [5] (hCTR funct. EC50 / hAmylin-R funct. EC50), in assay [5] (setting [16]) and in assay [5] (setting [17]) was 4.1 throughout.
